# From US11673876B2, “Substituted aminobenzyl heteroaryl compounds as EGFR and/or PI3K inhibitors” (Mekanistic Therapeutics LLC, priority 2020, dated 2023)
# Protein sequences, listed by entry. Tags and fused reporters are not part of them.
# UniProt P78527, whole entry: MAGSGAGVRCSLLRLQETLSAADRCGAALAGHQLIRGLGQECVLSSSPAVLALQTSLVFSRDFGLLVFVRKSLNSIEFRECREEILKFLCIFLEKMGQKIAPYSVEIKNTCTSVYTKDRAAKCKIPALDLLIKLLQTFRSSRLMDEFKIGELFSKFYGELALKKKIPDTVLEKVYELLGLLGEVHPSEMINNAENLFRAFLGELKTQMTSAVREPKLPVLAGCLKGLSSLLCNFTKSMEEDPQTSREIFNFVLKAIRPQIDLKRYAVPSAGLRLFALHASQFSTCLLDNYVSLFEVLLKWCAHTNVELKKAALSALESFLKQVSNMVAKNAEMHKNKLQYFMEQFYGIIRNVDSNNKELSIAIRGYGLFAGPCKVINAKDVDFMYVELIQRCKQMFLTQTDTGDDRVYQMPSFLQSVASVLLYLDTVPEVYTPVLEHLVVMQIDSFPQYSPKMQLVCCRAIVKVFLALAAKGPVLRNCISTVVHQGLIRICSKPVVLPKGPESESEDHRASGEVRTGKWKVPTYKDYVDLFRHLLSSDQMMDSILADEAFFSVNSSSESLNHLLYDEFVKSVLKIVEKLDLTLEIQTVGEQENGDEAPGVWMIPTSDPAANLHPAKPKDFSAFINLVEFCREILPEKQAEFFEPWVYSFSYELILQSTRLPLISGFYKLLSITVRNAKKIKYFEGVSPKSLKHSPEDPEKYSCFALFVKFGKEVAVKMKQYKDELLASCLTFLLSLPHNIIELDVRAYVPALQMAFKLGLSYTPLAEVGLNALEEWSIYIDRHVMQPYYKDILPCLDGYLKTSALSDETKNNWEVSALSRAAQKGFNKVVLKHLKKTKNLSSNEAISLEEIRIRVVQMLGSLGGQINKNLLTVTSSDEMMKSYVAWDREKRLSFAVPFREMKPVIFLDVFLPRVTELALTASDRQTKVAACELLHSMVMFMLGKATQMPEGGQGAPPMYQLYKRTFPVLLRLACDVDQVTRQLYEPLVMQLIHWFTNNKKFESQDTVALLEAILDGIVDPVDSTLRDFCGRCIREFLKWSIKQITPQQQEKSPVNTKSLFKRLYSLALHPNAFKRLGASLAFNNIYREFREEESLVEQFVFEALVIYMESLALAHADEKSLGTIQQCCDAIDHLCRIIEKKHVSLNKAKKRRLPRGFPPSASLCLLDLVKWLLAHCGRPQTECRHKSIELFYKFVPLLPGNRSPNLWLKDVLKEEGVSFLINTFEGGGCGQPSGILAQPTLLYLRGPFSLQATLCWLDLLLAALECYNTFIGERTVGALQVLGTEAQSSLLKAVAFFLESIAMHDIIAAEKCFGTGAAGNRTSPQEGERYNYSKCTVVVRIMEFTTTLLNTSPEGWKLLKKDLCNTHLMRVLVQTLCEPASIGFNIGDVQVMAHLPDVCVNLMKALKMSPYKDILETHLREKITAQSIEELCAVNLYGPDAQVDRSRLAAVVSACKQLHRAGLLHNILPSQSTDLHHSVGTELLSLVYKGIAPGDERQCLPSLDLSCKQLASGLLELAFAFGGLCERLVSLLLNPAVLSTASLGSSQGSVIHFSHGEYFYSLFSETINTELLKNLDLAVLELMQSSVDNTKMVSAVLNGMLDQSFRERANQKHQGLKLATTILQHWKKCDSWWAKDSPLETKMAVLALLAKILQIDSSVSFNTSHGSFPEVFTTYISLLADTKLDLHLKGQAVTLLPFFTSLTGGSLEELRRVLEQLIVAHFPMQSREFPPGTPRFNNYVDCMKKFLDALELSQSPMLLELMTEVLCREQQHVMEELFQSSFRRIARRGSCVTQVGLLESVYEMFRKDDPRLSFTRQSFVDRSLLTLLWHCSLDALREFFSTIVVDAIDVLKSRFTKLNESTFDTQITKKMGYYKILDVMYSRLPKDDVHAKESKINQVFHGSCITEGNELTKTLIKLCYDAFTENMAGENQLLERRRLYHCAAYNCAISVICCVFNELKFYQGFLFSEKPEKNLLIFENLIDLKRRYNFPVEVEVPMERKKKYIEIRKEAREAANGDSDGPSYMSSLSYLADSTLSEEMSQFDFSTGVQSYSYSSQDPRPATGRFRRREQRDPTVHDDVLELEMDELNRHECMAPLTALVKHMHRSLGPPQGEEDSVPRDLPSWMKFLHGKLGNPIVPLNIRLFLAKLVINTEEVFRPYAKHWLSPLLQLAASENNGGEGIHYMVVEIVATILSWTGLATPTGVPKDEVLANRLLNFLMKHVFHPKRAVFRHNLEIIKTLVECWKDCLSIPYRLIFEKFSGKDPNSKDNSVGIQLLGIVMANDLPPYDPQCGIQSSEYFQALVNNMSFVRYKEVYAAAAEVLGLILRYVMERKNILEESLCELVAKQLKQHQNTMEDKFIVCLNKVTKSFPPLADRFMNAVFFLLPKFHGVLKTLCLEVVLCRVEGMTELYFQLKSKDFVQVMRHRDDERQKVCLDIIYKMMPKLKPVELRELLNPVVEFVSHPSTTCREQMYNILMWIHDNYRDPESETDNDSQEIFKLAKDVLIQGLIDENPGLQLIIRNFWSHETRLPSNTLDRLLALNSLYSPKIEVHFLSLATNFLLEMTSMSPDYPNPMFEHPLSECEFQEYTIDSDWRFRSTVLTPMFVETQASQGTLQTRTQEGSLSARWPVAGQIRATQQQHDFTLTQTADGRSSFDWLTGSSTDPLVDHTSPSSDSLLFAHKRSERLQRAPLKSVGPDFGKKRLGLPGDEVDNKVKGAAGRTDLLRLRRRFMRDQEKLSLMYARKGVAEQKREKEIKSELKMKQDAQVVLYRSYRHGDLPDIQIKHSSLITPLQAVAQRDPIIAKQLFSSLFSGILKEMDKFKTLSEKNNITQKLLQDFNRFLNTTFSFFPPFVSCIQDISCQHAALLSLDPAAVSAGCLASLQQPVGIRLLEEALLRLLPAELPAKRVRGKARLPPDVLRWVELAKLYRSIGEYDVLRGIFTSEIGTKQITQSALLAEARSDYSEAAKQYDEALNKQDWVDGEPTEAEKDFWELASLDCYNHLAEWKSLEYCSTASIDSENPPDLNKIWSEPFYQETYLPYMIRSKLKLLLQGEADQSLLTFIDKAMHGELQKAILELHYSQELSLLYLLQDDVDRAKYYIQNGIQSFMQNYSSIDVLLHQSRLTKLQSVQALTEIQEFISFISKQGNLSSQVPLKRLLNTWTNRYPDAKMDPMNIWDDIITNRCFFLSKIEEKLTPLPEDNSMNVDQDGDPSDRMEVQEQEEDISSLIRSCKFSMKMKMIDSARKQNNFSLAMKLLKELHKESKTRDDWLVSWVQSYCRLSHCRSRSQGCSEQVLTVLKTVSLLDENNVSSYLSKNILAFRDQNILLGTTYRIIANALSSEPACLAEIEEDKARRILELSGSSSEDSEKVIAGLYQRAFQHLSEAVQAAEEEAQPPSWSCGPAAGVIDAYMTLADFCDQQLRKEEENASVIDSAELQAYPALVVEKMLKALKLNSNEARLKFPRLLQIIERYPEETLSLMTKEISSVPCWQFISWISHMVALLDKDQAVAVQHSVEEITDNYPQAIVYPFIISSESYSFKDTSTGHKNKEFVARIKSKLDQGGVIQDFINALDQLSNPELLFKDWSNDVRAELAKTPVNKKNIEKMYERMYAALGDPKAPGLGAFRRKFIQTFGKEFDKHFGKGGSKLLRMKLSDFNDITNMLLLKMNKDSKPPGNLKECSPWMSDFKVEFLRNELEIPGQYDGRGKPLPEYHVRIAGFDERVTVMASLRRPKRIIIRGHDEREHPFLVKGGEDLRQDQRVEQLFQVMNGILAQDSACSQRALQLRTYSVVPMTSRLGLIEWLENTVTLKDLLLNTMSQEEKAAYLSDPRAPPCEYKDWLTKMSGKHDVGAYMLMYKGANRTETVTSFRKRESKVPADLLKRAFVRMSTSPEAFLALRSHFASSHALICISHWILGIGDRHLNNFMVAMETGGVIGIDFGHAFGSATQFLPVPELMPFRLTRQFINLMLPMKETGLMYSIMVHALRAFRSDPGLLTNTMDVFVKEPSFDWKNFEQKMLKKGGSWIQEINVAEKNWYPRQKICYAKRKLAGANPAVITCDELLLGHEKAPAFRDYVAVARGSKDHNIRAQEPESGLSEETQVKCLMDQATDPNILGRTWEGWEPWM
# Experiments:
# EGFR = EGFR (Homo sapiens (Human), UniProt P00533); experiment: Z'-LYTE / Adapta kinase assay, EGFR; type: biochemical; details: read-out: EGFR % Inh. @ 100 nM
# Excerpt: (§1) The Z′-LYTE® biochemical assay employs a fluorescence-based, coupled-enzyme format and is based on the differential sensitivity of phosphorylated and non-phosphorylated peptides to proteolytic cleavage (FIG. 6). The peptide substrate is labeled with two fluorophores one at each end—that make up a FRET pair. In the primary reaction, the kinase transfers the gamma-phosphate of ATP to a single tyrosine, serine or threonine residue in a synthetic FRET-peptide. In the secondary reaction, a site-specific protease recognizes and cleaves non-phosphorylated FRET-peptides. Phosphorylation of FRET-peptides suppresses cleavage by the Development Reagent. […] A ratiometric method, which calculates the ratio (the Emission Ratio) of donor emission to acceptor emission after excitation of the donor fluorophore at 400 nm, is used to quantitate reaction progress.
# (§2) A significant benefit of this ratiometric method for quantitating reaction progress is the elimination of well-to-well variations in FRET-peptide concentration and signal intensities. […]
# (§3) Both cleaved and uncleaved FRET-peptides contribute to the fluorescence signals and therefore to the Emission Ratio. The extent of phosphorylation of the FRET-peptide can be calculated from the Emission Ratio. […]
# DNA-PK = DNA-PK (Homo sapiens (Human), UniProt P78527); experiment: Z'-LYTE / Adapta kinase assay, DNA-PK; type: biochemical; details: read-out: DNA-PK % Inh. @ 100 nM
# Excerpt: as §1, §2, §3
compound,measurement,setting,value
"CS(=O)(=O)Nc1cc(-c2ccc3ncc(C#N)c(NC4CCc5ccccc54)c3c2)cnc1Cl (centres unmarked) [Compound 101, N-[2-chloro-5-[3-cyano-4-(indan-1-ylamino)-6-quinolyl]-3-pyridyl]methanesulfonamide]",inhibition at 0.1 µM,EGFR,10 to 80%
same,inhibition at 0.1 µM,DNA-PK,> 90%
